Results from US20210230248A1, “Multivalent pharmacophores for high avidity and overexpressed-target specific binding and uses thereof” (priority 2020, published 2021).
Read-outs that look alike come from different tables or passages of the source.

By UniProt entry, the sequences of proteins in these tests, tags left out. Residues count along the entry.
UniProt Q9NZQ7, 19-290: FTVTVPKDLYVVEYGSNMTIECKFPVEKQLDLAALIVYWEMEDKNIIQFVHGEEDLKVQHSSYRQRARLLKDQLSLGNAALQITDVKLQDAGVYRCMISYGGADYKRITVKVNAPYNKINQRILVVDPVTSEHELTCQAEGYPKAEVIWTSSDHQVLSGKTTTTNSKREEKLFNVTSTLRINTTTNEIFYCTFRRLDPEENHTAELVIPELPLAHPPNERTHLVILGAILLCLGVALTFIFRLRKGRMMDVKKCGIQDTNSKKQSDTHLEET

How the values were obtained:
[1] = system: Human recombinant CD80; test: Binding to CD80 coated MSD plate; conditions: 5 nM; plate coated at 40 nM
Method: Human recombinant PD-L1, PD-L2 and CD80 (Abcam) at the concentration of 40 nM were coated onto wells of 96-well MSD plate (small spot, 40 μL/well) overnight at 4° C., and then blocked with 3% MSD Blocking Buffer for 1 h. […] The plates were shaken for another 1 h at room temperature. After washing, SULFO-TAG anti-mouse IgG antibody was added into the plates. The plates were further incubated for 1 h and then washed and read after adding 1×MSD Read Buffer. SULFO-TAG anti-human IgG antibody was added into the plate of PD-L1 Fc chimera proteins. The wells without coating were used as background binding.

[2] = molecular target: T1, PD-L1 (Homo sapiens, UniProt Q9NZQ7); conditions: Surface Plasmon Resonance; Cheng et al. 2013; read-out: Kd PD-1/PD-L1; cited from earlier work
[3] = molecular target: T2, PD-L2 (Homo sapiens, UniProt Q9BQ51); conditions: isothermal titration calorimetry; Cheng et al. 2013; read-out: Kd PD-1/PD-L2; cited from earlier work
T2 sequence (Q9BQ51 20-273): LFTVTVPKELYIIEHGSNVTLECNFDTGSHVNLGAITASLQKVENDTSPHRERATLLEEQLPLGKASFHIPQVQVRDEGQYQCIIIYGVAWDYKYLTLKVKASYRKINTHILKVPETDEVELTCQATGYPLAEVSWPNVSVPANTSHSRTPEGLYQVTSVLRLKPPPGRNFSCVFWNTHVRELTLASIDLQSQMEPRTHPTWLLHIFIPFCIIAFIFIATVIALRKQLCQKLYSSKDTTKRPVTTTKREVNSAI

[4] = molecular target: T1, PD-L1; conditions: isothermal titration calorimetry; Cheng et al. 2013; read-out: Kd PD-1/PD-L1; cited from earlier work
[5] = molecular target: T2, PD-L2; conditions: Surface Plasmon Resonance; Cheng et al. 2013; read-out: Kd PD-1/PD-L2; cited from earlier work

Substance | binding to CD80 coated plate [1] | Kd [2] | Kd [3] | Kd [4] | Kd [5]
PD-L1 Fc chimera: recombinant human PD-L1 Fc chimera protein (R&D Systems) [reference compound] | observed | – | – | – | –
PD-1: programmed cell death protein-1; its ectodomain is the ligand of the pharmacophores | – | ~8000 nM | 500 nM | 1600 nM | ~2000 nM
